Values of other authors in patent US8143245B2 (Pierre Fabre Medicament, priority 2006, dated 2012).

Test system: M3 muscarinic receptors versus M2 muscarinic receptors
Settings: cited from earlier work

For `CCN(CC)CC#CCOC(=O)C(O)(c1ccccc1)C1CCCCC1` (stereo not shown) [oxybutynine], the “Selectivity between M3 and M2 receptor” value is listed as “more selective with respect to the M3 receptor than with respect to the M2”.
